{
  "source": "paper PMC11581428",
  "biological_target": "full-length recombinant TbMyo1 (Trypanosoma brucei class I myosin) (Trypanosoma brucei) (UniProt Q585L2)",
  "data": [
    {"substance": "Alexa488-phalloidin-labelled rabbit skeletal actin filaments (from UniProt P68135 1-377) (natural protein)", "values": [
      {"measurement": "in vitro actin filament gliding assay: velocity of Alexa488-phalloidin-labelled F-actin over TbMyo1 immobilised via streptavidin on glass, 22°C, 2 mM ATP (n = 30 actin filaments)", "result": 130, "unit": "nm/s"}
    ]}
  ]
}
